# Experimental data taken from PubChem BioAssay AID449 (The Scripps Research Institute Molecular Screening Center, 2006).
# Amino acid sequences for entries named in this document (tags omitted).
# UniProt P21453, whole entry: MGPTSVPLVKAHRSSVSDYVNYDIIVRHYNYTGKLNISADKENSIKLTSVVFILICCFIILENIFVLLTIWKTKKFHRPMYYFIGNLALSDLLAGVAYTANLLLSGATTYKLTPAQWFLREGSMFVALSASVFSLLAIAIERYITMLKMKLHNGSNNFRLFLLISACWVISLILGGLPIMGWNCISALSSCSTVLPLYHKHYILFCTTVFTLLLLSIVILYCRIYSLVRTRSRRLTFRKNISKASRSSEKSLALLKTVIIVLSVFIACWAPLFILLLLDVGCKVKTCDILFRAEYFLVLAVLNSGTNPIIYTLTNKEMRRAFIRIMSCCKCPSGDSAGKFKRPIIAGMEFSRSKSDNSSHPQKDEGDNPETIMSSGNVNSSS
# The list shows a part of the results, in another mix than the full data. Some of these compounds have results that are not shown, active ones among them. Calls of active or inactive are those of the source.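 How the source made its calls: active means activation above a cutoff set at the mean activation of all tested compounds plus 3 SD (cut at about 54% in these data); inactive means the rest, inconclusive results apart.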
# Biological target: Sphingosine 1-phosphate receptor 1 (Homo sapiens) (UniProt P21453)
# Test: S1P1 agonists and agonism potentiators, primary screen, cell-based, primary and confirmation screens, CRE-bla reporter (AID 449);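 further: forskolin at 4 µM as EC80 and the EC20 agonist is SEW2871; 100% = SEW2871 at its EC100 plus forskolin at EC80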
# Conditions: S1P1 CRE-bla cells, forskolin, beta-lactamase FRET, potentiator mode; at 9.5 µM; active compounds read high; 100% = saturating reference agonist, 0% = basal; S1P1 agonist co-added at EC20, 2 nM
row,SMILES,activation
1,O=C(OC1CN2CCC1CC2)C(CO)(c1ccccc1)c1ccccc1 (configuration not stated),inactive: -8.2%
2,CN(C)c1cccc(C(=O)NCC2(N(C)C)CCCCC2)c1,inactive: -3.1%
